Assay results as given in ChEMBL document CHEMBL1240413, “Synthesis and evaluation of vinyl sulfones as caspase-3 inhibitors. A structure-activity study” (Eur J Med Chem, 2010).
pIC50: −log10 of the molar value.

Target: T1, Caspase-3 (Homo sapiens, UniProt P42574)
T1 sequence (P42574 whole entry): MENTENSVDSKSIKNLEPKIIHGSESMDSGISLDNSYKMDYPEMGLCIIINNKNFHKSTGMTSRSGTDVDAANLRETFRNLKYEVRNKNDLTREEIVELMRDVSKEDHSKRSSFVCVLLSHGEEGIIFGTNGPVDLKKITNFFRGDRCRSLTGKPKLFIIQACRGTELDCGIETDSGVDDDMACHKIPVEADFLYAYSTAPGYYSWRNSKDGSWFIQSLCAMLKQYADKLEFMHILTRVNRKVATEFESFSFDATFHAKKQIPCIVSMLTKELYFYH
Assay: Inhibition of human recombinant caspase 3 assessed as fluorescent 7-amido-4-methylcoumarin release

Compound: CC(=O)N[C@@H](CC(=O)O)C(=O)N[C@@H](CCC(=O)O)C(=O)N[C@H](C(=O)N[C@H](C=O)CC(=O)O)C(C)C
- pIC50: 8.80
